This note sets out measurements from ChEMBL document CHEMBL1152608, “Design, synthesis, and X-ray crystal structures of 2,4-diaminofuro[2,3-d]pyrimidines as multireceptor tyrosine kinase and dihydrofolate reductase inhibitors” (Bioorg Med Chem, 2009).

Amino acid sequences for entries named in this document (tags omitted).
UniProt P00533, whole entry: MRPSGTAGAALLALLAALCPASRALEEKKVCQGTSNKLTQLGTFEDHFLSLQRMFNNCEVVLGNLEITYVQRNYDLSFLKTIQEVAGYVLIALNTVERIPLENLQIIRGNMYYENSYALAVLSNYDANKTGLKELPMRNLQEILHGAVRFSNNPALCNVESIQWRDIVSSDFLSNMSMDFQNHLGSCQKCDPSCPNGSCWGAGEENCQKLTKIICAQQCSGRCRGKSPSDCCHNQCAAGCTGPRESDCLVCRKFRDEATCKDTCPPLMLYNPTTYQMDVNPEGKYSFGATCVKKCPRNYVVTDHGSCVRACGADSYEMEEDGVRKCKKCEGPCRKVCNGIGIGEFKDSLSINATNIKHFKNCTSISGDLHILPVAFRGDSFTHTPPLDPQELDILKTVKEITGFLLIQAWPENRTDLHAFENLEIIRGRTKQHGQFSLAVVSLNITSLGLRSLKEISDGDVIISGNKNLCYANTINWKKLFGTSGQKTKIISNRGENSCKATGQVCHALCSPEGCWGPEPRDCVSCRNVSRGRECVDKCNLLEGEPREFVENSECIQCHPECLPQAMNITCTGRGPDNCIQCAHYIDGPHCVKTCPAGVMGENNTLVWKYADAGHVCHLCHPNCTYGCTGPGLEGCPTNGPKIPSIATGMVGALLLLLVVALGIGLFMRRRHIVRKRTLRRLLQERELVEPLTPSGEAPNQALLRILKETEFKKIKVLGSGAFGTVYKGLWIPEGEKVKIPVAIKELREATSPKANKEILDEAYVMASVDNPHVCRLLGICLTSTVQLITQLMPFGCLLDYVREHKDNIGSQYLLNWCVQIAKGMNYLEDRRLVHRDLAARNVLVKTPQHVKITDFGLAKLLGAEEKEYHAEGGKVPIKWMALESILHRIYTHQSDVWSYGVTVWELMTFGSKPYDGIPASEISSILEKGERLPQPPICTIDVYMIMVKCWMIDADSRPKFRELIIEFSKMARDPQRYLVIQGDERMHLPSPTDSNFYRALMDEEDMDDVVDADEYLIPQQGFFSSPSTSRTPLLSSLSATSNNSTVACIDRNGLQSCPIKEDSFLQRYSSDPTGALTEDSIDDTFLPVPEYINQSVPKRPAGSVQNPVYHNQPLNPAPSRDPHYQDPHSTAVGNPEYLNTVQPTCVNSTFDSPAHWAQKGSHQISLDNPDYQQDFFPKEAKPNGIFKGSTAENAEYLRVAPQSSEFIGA

Assay [1] addresses T1, Bifunctional dihydrofolate reductase-thymidylate synthase (Toxoplasma gondii, UniProt Q07422).
T1 sequence (Q07422 whole entry): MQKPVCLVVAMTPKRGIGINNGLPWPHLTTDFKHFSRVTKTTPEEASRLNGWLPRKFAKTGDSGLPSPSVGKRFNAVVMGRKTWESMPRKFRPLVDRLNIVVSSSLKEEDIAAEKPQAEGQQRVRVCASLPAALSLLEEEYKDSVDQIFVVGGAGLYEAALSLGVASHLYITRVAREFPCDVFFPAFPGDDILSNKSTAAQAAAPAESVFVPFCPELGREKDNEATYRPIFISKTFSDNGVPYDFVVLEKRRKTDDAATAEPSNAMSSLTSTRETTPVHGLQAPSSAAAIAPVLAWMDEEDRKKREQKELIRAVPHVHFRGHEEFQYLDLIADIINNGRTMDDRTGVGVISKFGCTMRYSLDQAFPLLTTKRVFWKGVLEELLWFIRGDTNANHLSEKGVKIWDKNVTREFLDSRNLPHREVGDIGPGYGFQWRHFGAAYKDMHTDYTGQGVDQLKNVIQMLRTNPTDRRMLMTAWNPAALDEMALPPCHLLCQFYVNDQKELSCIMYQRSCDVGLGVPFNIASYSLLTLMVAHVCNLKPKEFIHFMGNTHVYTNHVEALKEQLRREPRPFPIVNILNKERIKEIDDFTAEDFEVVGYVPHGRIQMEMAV
Briefly: Inhibition of Toxoplasma gondii DHFR in presence of saturating levels of NADPH and DHFA.

The target of assay [2] is T2, Dihydrofolate reductase (Mus musculus, UniProt P00375).
T2 sequence (P00375 whole entry): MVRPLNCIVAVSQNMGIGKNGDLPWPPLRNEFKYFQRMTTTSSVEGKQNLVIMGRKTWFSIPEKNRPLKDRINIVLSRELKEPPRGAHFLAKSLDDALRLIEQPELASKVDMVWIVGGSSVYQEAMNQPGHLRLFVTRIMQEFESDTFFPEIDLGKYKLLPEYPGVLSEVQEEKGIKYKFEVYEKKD
Briefly: Inhibition of mouse DHFR in presence of saturating levels of NADPH and DHFA.

Assay [3] has as its target Epidermal growth factor receptor (Homo sapiens, UniProt P00533).
In assay [4] the target is T3, Dihydrofolate reductase (Rattus norvegicus, UniProt Q920D2).
T3 sequence (Q920D2 whole entry): T2 sequence (P00375 whole entry) with P27L, R85Q, R99K, I115V, G155E, V170I
Briefly: biochemical.

For assay [5], the target named is T3, Dihydrofolate reductase. Briefly: Inhibition of rat liver DHFR in presence of saturating levels of NADPH and DHFA. The class given is tissue-based.

Substitutions are numbered along the chain they refer to.

In the case of `COc1ccccc1/C(C)=C\c1coc2nc(N)nc(N)c12`, the results for the IC50 in assay [1] and in assay [2] were 3.94 µM and 3.9 µM, respectively.

Consider `COc1ccccc1/C(C)=C/c1coc2nc(N)nc(N)c12`, for which the IC50 in assay [1] was 4 µM.

Consider `COc1ccccc1C(=Cc1coc2nc(=N)[nH]c(N)c12)C(C)C` (mixture of isomers), for which half-maximal inhibition in assay [3] (IC50) required 111 µM.

As for `CCCC(=Cc1coc2nc(=N)[nH]c(N)c12)c1ccccc1OC` (mixture of isomers), the IC50 in assay [3] worked out at 160 µM; in assay [5] it was 15.2 µM. Besides, the Ki in assay [4] came to 1.6 µM.
